# Data as given in PubChem BioAssay AID581 (PCMD, 2007).
# The chains behind the UniProt entries cited, without tags or fusion partners. Residues count along the entry.
# UniProt P08311, 21-244 limits assumed: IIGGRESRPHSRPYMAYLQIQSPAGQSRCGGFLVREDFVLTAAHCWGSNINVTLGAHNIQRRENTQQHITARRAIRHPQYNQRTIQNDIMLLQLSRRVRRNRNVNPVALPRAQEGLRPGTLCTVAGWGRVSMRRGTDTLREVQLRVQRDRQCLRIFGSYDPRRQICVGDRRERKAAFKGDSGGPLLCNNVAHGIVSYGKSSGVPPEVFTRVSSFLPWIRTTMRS
# This is a selection; strong and weak results do not stand in their true shares. The source made the active and inactive calls.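 How the source made its calls: active means inhibition above 20% in each of the two mixture wells holding the compound; inactive means inhibition of 20% or less in either well.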
# Target: Cathepsin G (Homo sapiens) (UniProt P08311)
# Experiment: blockers of neutrophil cathepsin G protease – biochemical, pooled compound mixtures, AMC fluorescence, primary screen (AID 581);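 further: 0% = enzyme control without mixture and 100% = blank lacking enzyme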
# Settings: purified enzyme, AMC-tetrapeptide fluorescence, active compounds read high, screened at 5 µM (by protocol)
row,Structure (SMILES),inhibition
1,CP(=O)(Nc1ccccc1F)Oc1ccccc1 (stereo not drawn),inactive: 8.98%
2,Cc1ccccc1NP(C)(=O)Nc1ccccc1C,inactive: 1.49%
3,CP(=O)(Nc1ccc2c(c1)OCCO2)Oc1ccccc1 (stereo not drawn),inactive: 11.1%
4,CCOP(C)(=S)SCC(=O)NC(C)(CC)C(=O)O (stereo not drawn),inactive: 0.005%
5,CN(C)CCOC(=O)C(O)(c1ccccc1)C1CCCCC1 (stereo not drawn),inactive: -3.18%
6,CP(=O)(Oc1ccccc1)N1CCOC1=O (stereo not drawn),inactive: 11.6%
7,COc1ccccc1OP(C)(=O)Nc1c(C)n(C)n(-c2ccccc2)c1=O (stereo not drawn),inactive: -3.69%
8,CCN(CC)CC(O)COC(=O)C(O)(c1ccccc1)C1CCCCC1 (stereo not drawn),inactive: 12.4%
9,CP(=O)(Nc1ccccn1)Oc1ccccc1 (stereo not drawn),inactive: 11.4%
10,Cc1nc2ccc3ccccc3c2o1.O=[N+]([O-])c1cc([N+](=O)[O-])c(O)c([N+](=O)[O-])c1,inactive: -13.3%
11,COc1ccccc1OP(C)(=O)Nc1ccc(C)c(C)c1 (stereo not drawn),inactive: 13.6%
12,COc1ccccc1OP(C)(=O)Nc1ccc(C)cc1 (stereo not drawn),inactive: -0.76%
13,Cc1ccc(NP(C)(=O)Oc2ccccc2)c(C)c1 (stereo not drawn),inactive: -1.32%
14,CCOP(C)(=S)SCC(=O)NC(C)C(=O)O (stereo not drawn),inactive: -15.7%
15,CP(=O)(NC(=O)Nc1ccccc1)Oc1ccccc1 (stereo not drawn),inactive: 1.88%
16,CP(=S)(Nn1cnnc1)Oc1ccccc1 (stereo not drawn),inactive: 3.16%
17,Cc1nc2ccc3ccccc3c2s1.O=[N+]([O-])c1cc([N+](=O)[O-])c(O)c([N+](=O)[O-])c1,inactive: 12.5%
18,Cc1ccc(C)c(NP(C)(=O)Oc2ccccc2)c1 (stereo not drawn),inactive: 2.36%
